From patent US20070088080A1, “Gsk-3 inhibitors isolated from marine organisms” (NEUROPHARMA, S.A., priority 2003, published 2007)

The chains behind the UniProt entries cited, without tags or fusion partners. Where a name states a change or a piece, a line headed by the entry shows the natural chain unless it says otherwise.
UniProt P49841: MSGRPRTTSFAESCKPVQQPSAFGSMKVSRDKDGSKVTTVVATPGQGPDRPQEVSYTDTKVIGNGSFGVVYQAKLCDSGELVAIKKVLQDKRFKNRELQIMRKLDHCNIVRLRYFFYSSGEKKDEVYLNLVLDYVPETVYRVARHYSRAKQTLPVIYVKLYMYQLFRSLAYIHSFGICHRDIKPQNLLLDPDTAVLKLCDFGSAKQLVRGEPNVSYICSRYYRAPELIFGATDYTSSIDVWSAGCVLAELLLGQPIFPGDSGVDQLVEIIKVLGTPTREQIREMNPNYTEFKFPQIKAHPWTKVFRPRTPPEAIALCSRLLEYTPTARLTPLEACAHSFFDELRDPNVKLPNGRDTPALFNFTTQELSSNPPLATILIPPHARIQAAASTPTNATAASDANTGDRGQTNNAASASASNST

Biological target: Recombinant human glycogen synthase kinase 3β (Homo sapiens, UniProt P49841)
Assay: GSK3β inhibition, radiometric kinase assay with GS-2 peptide and 33P-ATP

IC50: 7.5 µM
SMILES: C/C(=C\C=C\C(C)CC/C=C(\C)CC1OC(=O)C(=O)C1=O)CCCc1ccoc1 (stereo not shown) [Tricantin]
